Consider one substance from patent US20130219529A1, “PROBE FOR A HAIR CELL, AND LABELLING METHOD FOR A HAIR CELL USING THE PROBE FOR A HAIR CELL” (CANON KABUSHIKI KAISHA, priority 2008, published 2013).

The subject of this data set is hair cell of Zebrafish. To be noted: 5 μM chemical substance, 24 hours exposure, Zebrafish Day 7 after fertilization, stained with staining compound 54. How it is done: Zebrafish after exposure was washed with distilled water. The same operation as that in Example 1 was performed except that the staining compound (1) used in Example 1 was changed to a staining compound (54).

On to gentamicin, for which the Auditory toxicity result is listed as “Present” and the “Change in staining intensity” value is given as “Weakened”.
